Results reported in article PMC4844572 (SpringerPlus, 2016).

System: EstSTR1
Assay: UV absorbance ([…] nm), competition with reporter substrate cephalothin
Details: competitive against 100 μM cephalothin; 10 mM MES pH 6.8, bovine serum albumin 20 μg/ml, enzyme 396 μM as printed; stands in Km column, footnote gives Ki

SMILES: CO/N=C(\C(=O)N[C@@H]1C(=O)N2C(C(=O)[O-])=C(C[N+]3(C)CCCC3)CS[C@H]12)c1csc(N)n1
- Km (μM) / Wild: 0.19 ± 0.003 µM
